Test results from patent publication US20240237646A1, “METHODS OF DECREASING PLANT INJURY AND IMPROVING CROP YIELD” (priority 2023, published 2024).

Tested on: creeping bentgrass (Agrostis palustris) turf
Settings: 6 applications every two weeks, 8 visual ratings combined, trinexapac-ethyl 514, paclobutrazol 280, prohexadione-calcium 154, flurprimidol 15 g ai/ha, B Sure 19,091 ml/ha in mixtures

## CC(C)C(O)(c1ccc(OC(F)(F)F)cc1)c1cncnc1 (stereo not shown) [Flurprimidol]
  % Phytotoxicity: 16%
